# Apparent affinities of Ab-14 variants for a coronavirus HR2 peptide

Target peptide (SARS-CoV-2 spike, HR2 region): PDVDLGDISGINAS

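The parent was found by panning a naive human phage display library on the peptide. This is the validation round: designs drawn from the data on random variants, tested in the same kind of assay. Several design methods are mixed in this list. AlphaSeq pools MATa yeast showing the antibodies with MATalpha yeast showing the peptide. Pairs that bind mate more often; barcode pairs of the diploids are counted by sequencing. Read counts were normalised to the haploid input and turned into Kd by a linear fit to BCL2-family pairs of known affinity, for each replicate. Mating was done six times.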

Parent scFv Ab-14: VH joined to VL by three GGGGS repeats. Changes lie in the light chain CDRs alone.
VH: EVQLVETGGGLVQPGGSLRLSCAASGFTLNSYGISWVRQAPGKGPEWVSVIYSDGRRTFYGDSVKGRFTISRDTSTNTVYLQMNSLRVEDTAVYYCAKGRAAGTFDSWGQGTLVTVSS
VL: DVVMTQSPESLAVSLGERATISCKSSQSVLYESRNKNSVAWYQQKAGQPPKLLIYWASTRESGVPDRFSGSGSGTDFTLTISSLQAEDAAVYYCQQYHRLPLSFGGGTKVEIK

The parent's light chain CDRs are KSSQSVLYESRNKNSVA, WASTRES, QQYHRLPLS; each variant's own CDRs replace them letter for letter.
Affinities are written as log10 Kd with Kd in nM; a lower number is a better binder.
Averages over replicates are reported, and they cover detected replicates only.
An entry "nd" has no value in the source: the pair was not observed among the diploids in any replicate. This suggests poor binding but is not conclusive.

Read-out 0.19 (6 of 6 replicates; controls 1 of 18), from KLSQSVLYEARNKNSVA, NASTRMS, QQYHRLPLS.
Read-out 1.09 (6 of 6 replicates; controls 1 of 18), from KINGVLYDESIDMQAVA, QENITVL, QQYFHLPLS.
Read-out 1.85 (6 of 6 replicates; controls 1 of 18), from KCSQSVLYESRNGNSVA, WASTREH, QQYHRLPLS.
Read-out -0.49 (6 of 6 replicates; controls 1 of 18), from KLGQMTGIESHNKNSLA, DANRRES, QQYYRLPLS.
Read-out 0.20 (6 of 6 replicates; controls 1 of 18), from KVVQSHDYESRNKNSVA, HASTRCS, QQYHRLPLS.
Read-out 0.24 (6 of 6 replicates; controls 0 of 18), from HLSINLPGNWYMGDSVA, HSERRAE, QQYARLPLG.
Read-out 3.93 (1 of 6 replicates; controls 1 of 18), from KLSMSVLYESANKNPVA, WASTRES, QNHHRLPLS.
Read-out 2.61 (1 of 6 replicates; controls 1 of 18), from KLSQFYRMEYRNKNSVA, DNSTRES, QDYDRLPLS.
Read-out nd (0 of 6 replicates; controls 1 of 18), from KSDQSVLYESRNGNSVA, SASTRES, QQYHRHPLS.
Read-out 1.52 (1 of 6 replicates; controls 0 of 18), from KLSLFYRMETRNKDSVA, DNSTRES, QDYDRLPLS.
Read-out nd (0 of 6 replicates; controls 0 of 18), from KSSQSVLYESRNKNSVA, WAVTRES, QQYHRLPLS.
Read-out -0.29 (6 of 6 replicates; controls 0 of 18), from KSSQSVAYMSRNKNNVA, DASIRES, QQYERLPLS.
Read-out 0.14 (6 of 6 replicates; controls 2 of 18), from FSSQSVLYESRNKNSVA, DASTRES, QQYHRLPLS.
Read-out nd (0 of 6 replicates; controls 0 of 18), from KSSQSVLYEDMLKNSVA, WASTRES, QQYHRLPLI.
Read-out 0.77 (6 of 6 replicates; controls 1 of 18), from KFSQSNLYESRNKNSVA, NASQRES, QQYHRLPLS.
Read-out 0.00 (6 of 6 replicates; controls 0 of 18), from KSSQSVLDESRNKNSVA, EGSTRES, QQYHRLPLS.
Read-out 0.47 (6 of 6 replicates; controls 0 of 18), from KFSQSMLYESRNKNSVA, NASTRES, QQYHRLPLS.
Read-out -0.08 (6 of 6 replicates; controls 5 of 18), from VMQIQSDGMLNTKHNVA, GVDERLE, QQYFRLPLL.
Read-out 2.22 (1 of 6 replicates; controls 0 of 18), from KFSQSWLYESRNKNSVA, NASQRES, QDYHRLPLS.
Read-out 0.05 (6 of 6 replicates; controls 3 of 18), from KLSQSYLYESRNKNSVA, GASTRES, QQYHRLPLS.
Read-out 0.00 (6 of 6 replicates; controls 0 of 18), from KLQQSWLYESRNKNSVA, NASLRES, QQYHRLPLS.
Read-out 0.53 (6 of 6 replicates; controls 0 of 18), from KFSQSVLYESRCKNSVA, NAVTRET, QQYHRLPLS.
Read-out 0.28 (6 of 6 replicates; controls 3 of 18), from KLSQLFYKESRKKNNVA, EMTTRMS, QQYDRLPLS.
Read-out 1.28 (6 of 6 replicates; controls 1 of 18), from KVSEFMRGLMKIKNSIA, DNVTRSN, QQYDRLPLS.
Read-out 0.76 (6 of 6 replicates; controls 0 of 18), from KMSQSVLYEERNKNSVA, WASTRES, QQYHRLPLS.
Read-out 0.06 (6 of 6 replicates; controls 0 of 18), from QLLTGVTENAKNGKAIA, NHEEKAQ, QQYFRLPFS.
Read-out 1.45 (6 of 6 replicates; controls 1 of 18), from NIRGVEFESAMMGNAVA, GMSLVEA, QQYFRLPLH.
Read-out 0.07 (6 of 6 replicates; controls 2 of 18), from KLSQSDEYESRQKNSVA, NASTRMQ, QQYHRLPLS.
Read-out 0.92 (6 of 6 replicates; controls 0 of 18), from KLRTQVGHQMDHKNSIA, EVDMVAQ, QQYMHLPLI.
Read-out 1.24 (6 of 6 replicates; controls 1 of 18), from KSSQSILYESRNKNSVA, WASTRES, QQYHRLPLS.
Read-out -0.12 (6 of 6 replicates; controls 2 of 18), from KFSLSVLFESRNKNSVA, NASTRES, QQYHRLPLS.
Read-out -0.42 (6 of 6 replicates; controls 0 of 18), from KLSQSVEYESRNKNSVA, DAQTRES, QQYHRLPLS.
Read-out 2.00 (6 of 6 replicates; controls 0 of 18), from KSSKSTLYESRNKNSVA, NASTRES, QQYHRLPLS.
Read-out 2.09 (2 of 6 replicates; controls 1 of 18), from KSSQSVLYESREKYSVA, WASTRES, QQYHRLPLS.
Read-out -0.22 (6 of 6 replicates; controls 1 of 18), from KFEQQDLYSSRNKNSVA, NASTRSQ, QQYHRLPLS.
Read-out 1.54 (6 of 6 replicates; controls 2 of 18), from SLELFSLEGDLPVNAVA, DEVVKLA, QQYFRLPLH.
Read-out nd (0 of 6 replicates; controls 0 of 18), from KLMTQFGHQMDHKNSIA, HVDMVAQ, QQYMHLPLI.

Repeated from above, the 6 best binders with a signal in all replicates:

| CDR-L1 | CDR-L2 | CDR-L3 | log10 Kd (nM), mean | replicates with signal | control signals |
|---|---|---|---|---|---|
| KLGQMTGIESHNKNSLA | DANRRES | QQYYRLPLS | -0.49 | 6/6 | 1/18 |
| KLSQSVEYESRNKNSVA | DAQTRES | QQYHRLPLS | -0.42 | 6/6 | 0/18 |
| KSSQSVAYMSRNKNNVA | DASIRES | QQYERLPLS | -0.29 | 6/6 | 0/18 |
| KFEQQDLYSSRNKNSVA | NASTRSQ | QQYHRLPLS | -0.22 | 6/6 | 1/18 |
| KFSLSVLFESRNKNSVA | NASTRES | QQYHRLPLS | -0.12 | 6/6 | 2/18 |
| VMQIQSDGMLNTKHNVA | GVDERLE | QQYFRLPLL | -0.08 | 6/6 | 5/18 |

As a blank, each scFv also met three strains without target: over all light chain designs, 4% of these pairings were detected, typically at 2.64 and seldom below 1.59. Also given: how often the same scFv was detected with the empty control strains.
The range of this assay differs from that of the first round, and the authors advise against merging the two.
In the paper, a design with two or fewer of six values counts as a poor binder.

Reference: Li et al. 2023, doi:10.1038/s41467-023-39022-2. File: FLAb, binding data.